Target: T1, Tyrosinase (Mus musculus, UniProt P11344)
T1 sequence (P11344 whole entry): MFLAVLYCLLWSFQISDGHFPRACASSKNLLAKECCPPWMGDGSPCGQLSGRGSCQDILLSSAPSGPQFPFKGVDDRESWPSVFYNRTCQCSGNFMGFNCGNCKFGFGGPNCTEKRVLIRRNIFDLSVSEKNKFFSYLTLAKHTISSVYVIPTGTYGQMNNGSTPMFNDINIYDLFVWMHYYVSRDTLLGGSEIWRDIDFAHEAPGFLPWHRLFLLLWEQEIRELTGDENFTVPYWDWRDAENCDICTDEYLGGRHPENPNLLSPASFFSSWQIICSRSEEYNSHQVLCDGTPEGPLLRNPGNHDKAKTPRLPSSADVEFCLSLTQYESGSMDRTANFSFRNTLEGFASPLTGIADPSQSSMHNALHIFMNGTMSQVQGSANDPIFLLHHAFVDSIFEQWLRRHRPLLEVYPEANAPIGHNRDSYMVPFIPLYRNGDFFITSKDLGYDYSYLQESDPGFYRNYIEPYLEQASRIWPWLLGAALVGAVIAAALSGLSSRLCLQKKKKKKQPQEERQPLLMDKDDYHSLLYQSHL
Assay type: cell-based

O=[N+]([O-])c1ccc(-c2nc(-c3ccncc3)c(-c3ccc(F)cc3)[nH]2)cc1 [PD-169316]
IC50: 89 nM
